The values that follow are results of earlier work, collected in PMC3627359 (Journal of medicinal chemistry, 2013).

This data set relates to ALS. Particulars: ALS patients; cited from earlier work.

For `Nc1nc2ccc(OC(F)(F)F)cc2s1` [riluzole], the Extension of survival was 2-3 months.
